The values that follow come from patent US20260275412A1, “A GENE SIGNATURE FOR DIAGNOSING STIMULATOR OF INTERFERON GENES (STING)-ASSOCIATED VASCULOPATHY WITH ONSET IN INFANCY (SAVI)” (INSTITUT NATIONAL DE LA SANTÉ ET DE LA RECHERCHE MÉDICALE, priority 2023, published 2026).

Format in all cases: cell-based, human
For experiment [1], the system named is healthy PBMC. Briefly: IFN-β stimulation of healthy PBMC, scRNA-seq. On the procedure: (§1) Buffy coats from three healthy young male (19 to 22 years old) were obtained from the Etablissement Français du Sang. PBMCs were isolated using Ficoll (Eurobio Scientific, Les Ulis, France) density gradient and centrifugation at 800 g without brakes for 25 minutes. Following centrifugation, cells were washed in wash buffer and centrifuged at 160 g for 9 minutes at 4° C. and the pellet was resuspended in 10 mL of wash buffer. Cells were plated in 96-wells tissue culture plates, with 150,000 cells per wells in an initial volume of 125 μL. One plate was made for each donor for each timepoint to plate a total of 15 million cells per condition.
(§2) Cells were challenged with 25 μL of recombinant IFN-β (Human interferon beta 1a, mammalian, Catalog No 11410-2, PBL assay Science, USA) at 6,000 IU/mL for a final concentration of 1000 U/mL per well, at one of several timepoints: 1 h, 2 h, 4 h, 8 h, 12 h, 24 h or 36 h. Stimulations were done so that all cells, even unstimulated, would be kept a total of 36 h in culture. After 36 h of culture at 37° C., 5% of CO2, cells were collected and counted. 10,000 cells were sent to scRNA-seq and 2 million to cell phenotyping by CyTOF. Supernatant was frozen at −20° C. and kept for analysis of secreted proteins.
The 24 scRNA-seq libraries of the IFN dataset were generated using Chromium Single Cell Next GEM 3′ Library & Gel Bead Kit v.3.1 (10× Genomics) according to the manufacturer's protocol, following the same steps as in the SAVI dataset. The purified libraries were sequenced on a Novaseq (Illumina) with 28 cycles of read 1, 8 cycles of i7 index and 91 cycles of read 2.
Sequencing reads were demultiplexed and aligned to the human reference genome (hg38), and counted using the CellRanger Pipeline v6.0. Unfiltered RNA UMI counts were loaded into Seurat v4 for quality control, data integration and downstream analyses. Apoptotic cells and empty sequencing capsules were excluded by filtering out cells with low number of features (Filters were defined based on the batch: STING1: nFeature <300; STING2 and STING3<500; IFN-stim <750) or a mitochondrial content higher than 20%. Data from each sample were normalized using sctransform, before batch correction using Seurat's FindIntegratedAnchors, on the 3,000 most variable features. For the IFN-β dataset, for computational efficiency, integration anchors were determined with a canonical correlation analysis, using all unstimulated samples as reference. For the SAVI dataset, to avoid over-aligning samples, a reciprocal principal component analysis (PCA) was used to find integration anchors. On the resulting integrated datasets, we computed the PCA on the 3000 most variable genes, before computing a UMAP (on 20 PCs for SAVI and 30 PCs for IFN-stimulation). Community detection was performed using the graph-based modularity-optimization Louvain algorithm from Seurat's FindClusters function with a 1.2 resolution. Cell types labels were assigned to resulting clusters based on a manually curated list of marker genes as well as previously defined signatures of the PBMC subtypes.^58 Despite filtering for high quality cells, 11/34 clusters in the SAVI dataset and 7/36 in the IFN-β dataset stood out as poor quality clusters and were removed from further analysis. They represented low UMI cells, dying cells, cycling cells, doublets, or contaminants (progenitor cells, basophils, platelets or megakaryocytes). A total of 112,060 and 115,503 cells were kept in the SAVI and IFN-β datasets respectively. Transcriptomic signatures scores were calculated using Seurat's AddModuleScore function. Differential expression testing was conducted using the FindMarkers function in Seurat, with default Wilcoxon testing. P-values were controlled using Bonferroni correction. Genes with an absolute log (fold-change) ≥0.25 and an adjusted p-value≤0.05 were selected as differentially expressed. […]

For experiment [2], the system named is healthy PBMC. Briefly: IFN-β stimulation of healthy PBMC, cell phenotyping by CyTOF. The following applies: within 36 hours of stimulation; scRNA-seq validated by CyTOF. On the procedure: as §1
as §2, with “proteins. […]” for “proteins.”

Experiment [3] deals with healthy PBMC. Kind of experiment: IFN-β stimulation of healthy PBMC, secreted cytokines by proximity extension assay (Olink). The settings on record: conditioned media. On the procedure: as §2
The plasma samples and conditioned media from in vitro stimulated PBMC were analyzed by proximity extension assays (PEA), a targeted, antibody-based, proteomics method. We used the PEA Olink Target96 Inflammation panel which targets 92 biomarkers. Briefly, 2 DNA-labeled antibodies bind to a targeted protein, followed by hybridization of the oligonucleotides when the antibodies come in close proximity to each other. Adding DNA polymerase to the sample generates a unique PCR target sequence, which is then detected and quantified using a quantitative PCR (qPCR) readout (BiomarkHD™, Data collection and Real Time PCR analysis software 4.7.1, Fluidigm).
The Olink PEA Quality control process consists of technical controls to monitor the performance of all 3 steps of the assays (immunoreaction, extension, and amplification/detection) as well as the individual samples. Internal controls are spiked into each sample to provide a non-human assay control, a positive extension control consisting of an antibody coupled to a unique DNA-pair and, finally, a positive detection control based on a double stranded DNA amplicon. In addition, each experimental run includes a control strip with control samples used to estimate the accuracy of protein detection and quantification (intra- and inter-coefficient of variation). A negative control (buffer) run in triplicate is used to set background levels and calculate limit of detection (LOD), a plate control (plasma pool) is run in triplicate for plate normalization, and a sample control (reference plasma) is included in duplicate to estimate CV between runs.
Data are presented as NPX (Normalized Protein expression) values. NPX is Olink's relative protein quantification unit on log 2 scale. Data generation of NPX (obtained using Olink NPX Manager 3.3.2.434) consists of normalization to the extension control (known standard), log 2-transformation, and level adjustment using the plate control (plasma sample).
Serial dilutions of samples are performed to determine a potential Hook effect (observed when there is an antigen excess relative to the reagent antibodies, resulting in falsely lower values). […]

Setting [4] is: IFN-β stimulated monocytes, 36 h.
The mark [5] stands for this setting: PBMCs stimulated with IFN-β for 36 h.

Turning to “IFN-β: recombinant IFN-β (Human interferon beta 1a, mammalian, Catalog No 11410-2, PBL assay Science)”, the “STING activation signature (21 genes)” value in experiment [1] (IFN data set, any timepoint) is “not increased”. Further, in experiment [1] (IFN-β 1000 U/mL, 1 h to 36 h, particularly monocytes and DCs), the “transcriptomic signature of NF-κB activation” value was “induced by IFN-β as soon as one-hour of stimulation but continues to increase until 36 h”. For the same substance, the “IFN-related and inflammation-related pathways” value in experiment [1] (IFN-β for 36 h, pathway analysis of DEGs) is “activated”. Also, the cell death pathways result in experiment [1] (IFN-β for 36 h compared to unstimulated cells) was “enriched”. In experiment [1] (setting [4]), the PPP1R15A expression result is listed as “increased” and the UPR signature result is given as “increased”. Moreover, the UPR result in experiment [1] (IFN-β stimulation, compared with SAVI patients) was “slight increase”. In addition, the “unfolded protein response (UPR) pathway” value in experiment [1] (IFN-β time course, increasing induction throughout) was “induced as soon as 4 h”. The EIF2 signaling pathway entry in experiment [1] (IFN-β time course, lowest prediction score at 36 h) is “inhibited as soon as 2 h”. The senescence signature result in experiment [1] (T cells, IFN-β dataset) is “increased senescence”. The “proportion of cells in G2/M phase” value in experiment [1] (T cells, IFN-β dataset, back to normal after 36 h) is “decreased proportion of cells in G2/M phase”. In experiment [1] (T cells, IFN-β time course), the “CD69 expression (mRNA)” value is “induced by IFN-β challenge at early time points but returned to basal levels between 4 and 12 h post stimulation”. The “other cell death pathways (necroptosis, death receptor signaling)” value in experiment [1] (T cells, IFN-β-challenge) is on record as “induced”. In addition, the “global T cell activation signature” value in experiment [1] (T cells, IFN-β-challenged cells) is given as “increased”. The apoptosis signature entry in experiment [1] (T cells, IFN-β-treated, 2 h, decreased afterwards) was “sharp increase”. Also, in experiment [1] (effector T cell clusters after IFN-β challenge), the lymphocyte trafficking signature result is reported as “decreased”. In addition, the actin/integrin-related pathways result in experiment [1] (healthy PBMCs 36 h post-IFN-β stimulation, predicted) is “activated in T cells and B cells, while inhibited in monocytes and NK cells”. The “type I IFN response signature” value in experiment [1] (recombinant IFN-β 1000 U/mL, 1 h to 36 h) was “robust induction as soon as one hour of stimulation, peaking after 2 h”. For the same substance, the “effector T cells (cell type proportions)” value in experiment [2] is reported as “no decrease”. Moreover, in experiment [3] (setting [5]), the CCL19 secretion result is listed as “induction”, the CXCL10 secretion result is listed as “induction” and the VEGFA secretion entry is “induction”. The CXCL8 secretion entry in experiment [3] (PBMCs stimulated with IFN-β) is listed as “increased secretion”.
